Key:
[1] = tested on: exposure to chlorine, bromine and/or phosgene gas; experiment: Animal models of chlorine, bromine and/or phosgene gas poisoning, post-exposure nitrite (summary); settings: post-exposure intramuscular sodium nitrite, mice, rats and rabbits
[2] = tested on: C57bl/6 mice exposed to Cl2 gas; experiment: Survival of mice after Cl2 gas exposure, post-exposure IM nitrite

O=NO [nitrite, sodium nitrite] was tested, and the “Acute lung injury and survival” value [1] was “significant decreases in acute lung injury and improved survival”, the Acute survival ([2]; IM nitrite given to mice post-Cl2 gas exposure) was “improves acute survival” and the “Time post-exposure with greatest survival benefit” value ([2]; IM nitrite post-Cl2 gas exposure) was “up to 18 hours”. For the same compound, the 24 hour survival ([2]; female mice, Cl2 600 ppm 45 minutes, nitrite 10 mg/Kg IM 30 minutes post-exposure) was “only the highest dose was protective”, the 24 hour survival ([2]; female mice, Cl2 600 ppm 45 minutes, nitrite 20 mg/Kg IM 30 minutes post-exposure) was “protective” and the “Survival (Kaplan-Meier)” value ([2]; male C57bl/6 mice, Cl2 600 ppm 45 minutes, nitrite IM at 60 minutes post-exposure, vs saline) was “Significantly higher survival”. The 24 hour survival ([2]; male mice, Cl2 600 ppm 45 minutes, nitrite 10 mg/Kg IM 30 minutes post-exposure) was “improved survival” and the 24 hour survival ([2]; male mice, Cl2 600 ppm 45 minutes, nitrite 20 mg/Kg IM 30 minutes post-exposure) was “improved survival”.
